US10093660B2, “Sulfoximine substituted quinazolines for pharmaceutical compositions” (EVOTEC INTERNATIONAL GMBH, priority 2013, dated 2018)

Protein sequences, listed by entry. Tags and fused reporters are not part of them. Chains listed by the source or under a name are the forms on record and can include a tag or linker.
UniProt Q9BUB5, with tags, fused parts or gaps limits assumed: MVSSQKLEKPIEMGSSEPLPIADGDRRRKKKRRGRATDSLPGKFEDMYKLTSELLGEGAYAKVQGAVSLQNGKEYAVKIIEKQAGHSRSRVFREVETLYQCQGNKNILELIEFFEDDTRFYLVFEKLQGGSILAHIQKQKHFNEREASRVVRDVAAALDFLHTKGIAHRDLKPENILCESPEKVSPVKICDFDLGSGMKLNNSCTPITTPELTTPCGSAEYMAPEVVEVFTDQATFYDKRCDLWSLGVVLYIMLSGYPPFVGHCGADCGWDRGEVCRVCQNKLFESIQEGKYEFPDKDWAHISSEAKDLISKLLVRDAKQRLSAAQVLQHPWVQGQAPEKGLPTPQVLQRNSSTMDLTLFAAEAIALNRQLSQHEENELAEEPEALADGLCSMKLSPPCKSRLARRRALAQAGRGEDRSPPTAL
UniProt Q9HBH9, whole entry: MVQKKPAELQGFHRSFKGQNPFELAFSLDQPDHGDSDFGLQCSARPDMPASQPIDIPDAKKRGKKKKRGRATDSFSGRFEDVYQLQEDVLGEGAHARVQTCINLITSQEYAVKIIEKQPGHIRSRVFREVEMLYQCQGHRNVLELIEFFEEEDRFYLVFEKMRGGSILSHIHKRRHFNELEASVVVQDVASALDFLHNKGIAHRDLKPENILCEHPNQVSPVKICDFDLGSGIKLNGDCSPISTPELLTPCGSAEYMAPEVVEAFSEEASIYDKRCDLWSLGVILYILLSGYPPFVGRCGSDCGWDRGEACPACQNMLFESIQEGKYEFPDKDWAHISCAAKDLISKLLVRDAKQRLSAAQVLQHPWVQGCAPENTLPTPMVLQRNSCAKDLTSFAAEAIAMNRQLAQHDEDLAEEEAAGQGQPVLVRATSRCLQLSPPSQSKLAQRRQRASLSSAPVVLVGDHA

Key:
MNK1a = MNK1a (Homo sapiens (Human), UniProt Q9BUB5); experiment: MNK1 in vitro kinase assay (Assay 3), Z'-LYTE; type: biochemical
MNK2a = MNK2a (Homo sapiens (Human), UniProt Q9HBH9); experiment: MNK2a in vitro kinase assay (Assay 2), ADP-Glo; type: biochemical; conditions: read-out: MNK2 IC50

Row | SMILES | MNK1 % INH (MNK1a; compound concentration of 1 μM) | IC50 (MNK2a) | IC50 (MNK1a; read-out: MNK1 IC50)
1 | Cc1cc(N=S2(=O)CCCC2)cc2ncnc(Nc3ccc(F)cc3O[C@@H]3COC[C@H]3O)c12 | 95% | 4 nM | 
2 | Cc1cc(N=S2(=O)CCCC2)cc2ncnc(Nc3cccnc3O[C@@H]3COC[C@H]3O)c12 |  |  | 61 nM
